Each structure is given as a SMILES string. This is a selection; strong and weak results do not stand in their true shares. Records with an inconclusive call do not appear. Activity calls are given as the source filed them.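 The calls were made as follows: active = more than half of the replicate wells show a fall in the fluorescence ratio signal beyond about 16% (limit read from the data, passing the limit was not always enough); inconclusive = exactly half of the replicate wells pass the set limit; inactive = fewer than half of replicates pass the limit.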

The experiment concerns Ran GTPase (GTP-bound) - importin-beta complex. Kind of experiment: disruptors of Ran-importin-beta complex formation – biochemical, FRET, CFP-Ran, YFP-importin-beta, homogeneous, primary screen (AID 2216).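 Also: 0% = DMSO wells and 100% = Ran loaded with GDP instead of GTP.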 To be noted: cell-free CFP-Ran/YFP-importin-beta FRET ratio; hits give high values; concentration not given here.
Turning to `Cc1cc(-c2cccc3ccccc23)c(C)cn1.O=[N+]([O-])c1cc([N+](=O)[O-])c(O)c([N+](=O)[O-])c1`, the inhibition is inactive: -1.15%.

For the compound `O=[As](O)(c1ccccc1)c1ccc(O)cc1`, the inhibition is inactive: 3.03%.

On to `C[C@H]1OP(=O)(Oc2ccccc2)[C@H](O)[C@H](O)[C@H]1N=[N+]=[N-]` (some centres undefined), for which the inhibition is inactive: -1.85%.

On to `CN(C)CCOC(=O)C(O)(c1ccccc1)C1CCCCC1` (centres undefined), for which the inhibition is inactive: 1.64%.

As for `COc1ccc(NP(C)(=O)Oc2ccccc2OC)cc1` (centres undefined), the inhibition is inactive: -2.22%.

Turning to `COc1ccc(OP(C)(=O)Nc2cccc(Br)c2)cc1` (centres undefined), the inhibition was inactive: 2.62%.

Take `CN(C)C1(CNC(=O)c2ccc(Cl)c(S(N)(=O)=O)c2)CCCCC1`: the inhibition is inactive: -1.57%.

Turning to `O=P(Nc1ccccn1)(c1ccc(Br)cc1)c1ccc(Br)cc1`, the inhibition is inactive: 1.62%.

For the compound `Cc1ccccc1NP(C)(=O)Nc1ccccc1C`, the inhibition was inactive: -0.743%.

With `CP(=O)(Nc1ccc2c(c1)OCCO2)Oc1ccccc1` (centres undefined), the inhibition is inactive: 0.109%.

Consider `CCOP(C)(=S)SCC(=O)NC(C)(CC)C(=O)O` (centres undefined), for which the inhibition was inactive: -3.42%.

Take `c1nnnn1CCn1cnnn1`: the inhibition was inactive: 6.85%.

Take `CP(=O)(Nc1ccc(SC(F)(F)F)cc1)Oc1ccc(F)cc1` (centres undefined): the inhibition is inactive: 0.946%.

Regarding `O=P(Nc1nccs1)(c1ccccc1)c1ccccc1`, the inhibition is inactive: 0.212%.

Take `CC(C)C(=O)NC(Sc1ccccc1)C(Cl)(Cl)Cl` (centres undefined): the inhibition is inactive: 3.8%.

On to `CC1(CBr)Cn2c(nc3ccccc3c2=O)S1` (centres undefined), for which the inhibition is inactive: -1.45%.

As for `O=[As](O)(c1ccccc1Br)c1ccccc1Br`, the inhibition was inactive: 4.69%.

With `CN(C(=O)Cc1ccc(Cl)c(Cl)c1)[C@@H]1CCCC[C@H]1N1CCCC1`, the inhibition is inactive: -0.526%.

As to `CC(C)/C=N\N=C(\N)N[N+](=O)[O-]`, the inhibition was inactive: 2.75%.

On to `COc1ccccc1CNC(=O)COC(=O)C(O)(c1ccccc1)c1ccccc1`, for which the inhibition is inactive: -0.391%.

As to `O=[N+]([O-])c1cc([N+](=O)[O-])c(-c2cnn(-c3ccccc3)c2)c([N+](=O)[O-])c1`, the inhibition is inactive: -1.82%.

On to `CC(C)(C)C(=O)NC(Sc1ncccn1)C(Cl)(Cl)Cl` (centres undefined), for which the inhibition was inactive: 1.73%.

On to `Clc1n[nH]nc1-c1nn[nH][15n]1`, for which the inhibition was inactive: -2.56%.

As for `CCOP(=O)(Nc1ccc(C)cn1)OCC`, the inhibition was inactive: 2%.

`CN(CCCl)Cc1cc(Cl)c(NC2=NCCN2)c(Cl)c1`: the inhibition was inactive: -0.618%.

For the compound `O=[N+]([O-])c1cc([N+](=O)[O-])c(-n2nnc3ccccc32)c([N+](=O)[O-])c1`, the inhibition is inactive: 4.41%.

Consider `CCOP(=O)(NC(=NC(C)c1ccccc1)NC(C)c1ccccc1)OCC` (centres undefined), for which the inhibition is inactive: -0.806%.

On to `CCC1=CC2Cc3nc4ccc(Cl)cc4c(N)c3C(C1)C2` (centres undefined), for which the inhibition is inactive: 3.47%.

`O=P1(Nc2ccccn2)COc2ccccc2OC1`: the inhibition is inactive: -1.22%.

With `O=[As](O)(c1cccs1)c1cccs1`, the inhibition was inactive: 0.0855%.

Turning to `Cc1ccc(OCC(=O)OC2CN3CCC2CC3)cc1` (centres undefined), the inhibition was inactive: 1.02%.

Take `CCCOc1ccc(NP(C)(=O)Oc2ccc(Cl)cc2)cc1` (centres undefined): the inhibition was inactive: 1.08%.

For the compound `CP(=O)(Nc1ccc(SC(F)(F)F)cc1)Oc1ccccc1` (centres undefined), the inhibition is inactive: 7.14%.

Consider `Nc1cccc([As](=O)(O)c2ccccc2)c1`, for which the inhibition was inactive: -0.351%.

For `CN1CCCCC1COC(=O)C1(O)c2ccccc2CCc2ccccc21` (centres undefined), the inhibition was inactive: -2.06%.

For the compound `COc1ccccc1OP(C)(=O)Nc1c(C)cccc1C` (centres undefined), the inhibition is inactive: 1.41%.

As for `O=P1(Nc2ncccn2)COc2ccccc2OC1`, the inhibition is inactive: -0.633%.

As to `O=C(/C=C/c1ccccc1)OC1CN2CCC1CC2` (centres undefined), the inhibition was inactive: 4.66%.

Turning to `CCOC(=O)C(CC)C1=NC(C)(C)Cc2ccccc21.O=[N+]([O-])c1cc([N+](=O)[O-])c(O)c([N+](=O)[O-])c1` (centres undefined), the inhibition was inactive: 0.0666%.

On to `CN(C)C1(CNC(=O)c2ccc(S(C)(=O)=O)cc2)CCCCC1`, for which the inhibition is inactive: -0.957%.

On to `O=[N+]([O-])c1cc([N+](=O)[O-])c(Nc2nnnn2CCO)c([N+](=O)[O-])c1`, for which the inhibition is inactive: -6.12%.

On to `COc1cc(C2NCCC3(OCCO3)C2(C)C)cc(OC)c1OC.O=[N+]([O-])c1cc([N+](=O)[O-])c(O)c([N+](=O)[O-])c1` (centres undefined), for which the inhibition was inactive: 5.21%.

As for `CC1CCC(C(C)C)C(OP(=O)(Nc2ccccn2)c2ccccc2)C1` (centres undefined), the inhibition is inactive: -1.39%.

For `Cc1nn(-c2ccccc2)c2c1P(=O)(N1CCOCC1)N(C)C(c1ccccc1)=N2` (centres undefined), the inhibition is inactive: 1.91%.

`CC1=NCCc2c1[nH]c1ccccc21.O=[N+]([O-])c1cc([N+](=O)[O-])c(O)c([N+](=O)[O-])c1`: the inhibition is inactive: -8.84%.

In the case of `CN(C(=O)Cc1ccc(Cl)c(Cl)c1)[C@H]1CC[C@@]2(CCCO2)C[C@@H]1N1CCCC1`, the inhibition was inactive: 1.24%.

Turning to `O=[N+]([O-])c1ccc2c(c1)nnn2O`, the inhibition was inactive: 3.56%.

As for `CN(C)C(=O)c1cc([N+](=O)[O-])cc2c1-c1c(cc([N+](=O)[O-])cc1[N+](=O)[O-])C2=O`, the inhibition is inactive: 1.02%.

In the case of `CCOP1(=S)c2c(C)nn(CCC#N)c2N=C(c2ccc(F)cc2)N1C` (centres undefined), the inhibition is inactive: 3.18%.

As for `CN(C(=O)Cc1ccccc1)[C@@H]1CC[C@]2(CCCO2)C[C@H]1N1CCCC1`, the inhibition was inactive: -2.23%.

For the compound `N#CCCN(C(=O)COC(=O)C(O)(c1ccccc1)c1ccccc1)c1ccc(F)cc1`, the inhibition was inactive: 4.31%.

On to `NC(=O)Nc1ccc([As](=O)(O)O)cc1`, for which the inhibition is inactive: 1.71%.

In the case of `O=C(O)COc1ccc([As](=O)(O)O)cc1[N+](=O)[O-]`, the inhibition is inactive: -1.36%.

Regarding `Nc1ccccc1[As](=O)(O)c1ccccc1`, the inhibition is inactive: -3.39%.

Turning to `CS(=O)(=O)c1cc([N+](=O)[O-])c2no[n+]([O-])c2c1`, the inhibition is inactive: -59.1%.

Regarding `O=P(Nc1nccs1)(Oc1ccccc1)Oc1ccccc1`, the inhibition was inactive: 1.5%.

`O=P(Nc1nccs1)(c1ccccc1)c1nc2ccccc2s1` (centres undefined): the inhibition is inactive: -5.01%.

Turning to `O=C(O)c1cccc(Nc2c([N+](=O)[O-])cc([N+](=O)[O-])cc2[N+](=O)[O-])c1`, the inhibition is inactive: -2.77%.

In the case of `CCOP1(=S)c2c(C)nn(CCC#N)c2N=C(c2ccccc2F)N1C` (centres undefined), the inhibition was inactive: 2.6%.

The term inhibition denotes the relative decrease from the control value, in per cent.

Values taken from PubChem BioAssay AID2216 (Broad Institute, 2009).
